{
  "source": "patent US11992490B2",
  "about": "“Use of JAK1 inhibitors for the treatment of cutaneous lupus erythematosus and Lichen planus (LP)” (Incyte Corporation, priority 2019, dated 2024)",
  "target": "human JAK1 (a.a. 837-1142) (Homo sapiens, UniProt P23458)",
  "experiment": "In vitro JAK kinase assay (HTRF), JAK1",
  "format": "biochemical",
  "conditions": "1 mM ATP",
  "data": [
    {"smiles": "CN(C)Cc1cc(F)cc(OC2CCN(CC(CC#N)n3cc(-c4ncnc5[nH]ccc45)cn3)CC2)c1", "note": "(single isomer, unassigned) [Compound 14, 4-(4-{3-[(dimethylamino)methyl]-5-fluorophenoxy}piperidin-1-yl)-3-[4-(7H-pyrrolo[2,3-d]pyrimidin-4-yl)-1H-pyrazol-1-yl]butanenitrile]", "values": [
      {"measurement": "IC50", "value": "< 10", "unit": "nM"}
    ]}
  ]
}
